From US7851630B2, “Hydronopol substituted benzimidazolone and quinazolinone derivatives as agonists on human ORL1 receptors” (dated 2010)

Amino acid sequences for entries named in this document (tags omitted). A change or cut given only in a name is not applied to a line headed by its entry.
UniProt P41146: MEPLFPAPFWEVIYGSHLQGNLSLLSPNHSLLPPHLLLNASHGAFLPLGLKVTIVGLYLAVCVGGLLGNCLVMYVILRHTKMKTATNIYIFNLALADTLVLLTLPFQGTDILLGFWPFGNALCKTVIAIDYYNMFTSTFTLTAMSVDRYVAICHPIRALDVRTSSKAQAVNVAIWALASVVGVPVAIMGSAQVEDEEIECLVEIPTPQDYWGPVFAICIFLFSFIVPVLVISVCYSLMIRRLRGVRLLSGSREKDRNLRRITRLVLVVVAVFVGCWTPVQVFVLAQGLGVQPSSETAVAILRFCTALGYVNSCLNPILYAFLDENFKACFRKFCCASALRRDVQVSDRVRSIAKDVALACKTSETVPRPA

Key:
[1] = biological target: ORL1 receptor (Homo sapiens, UniProt P41146); test: In vitro ORL1 receptor agonism, cAMP assay
[2] = system: conditioned ultrasonic distress vocalisation; conditions: intraperitoneal administration

Structure (SMILES): CC1(C)[C@H]2CC[C@@H](CCN3CCC(N4C(=O)NCc5ccccc54)CC3)[C@@H]1C2
- In vitro agonism cAMP assay pEC50 [1]: 8.5
- In vivo agonism C.U.D.V. i.p. ED50 [2]: 7.4 mg/kg
